## Binding of CDR-mutated scFvs to a peptide of the spike HR2 region

Binding partner: SARS-CoV-2 spike HR2 peptide, sequence PDVDLGDISGINAS.

Ab-91 is the parent antibody, in scFv form: VL, then three GGGGS repeats, then VH. The light chain is unchanged in all variants.
VL: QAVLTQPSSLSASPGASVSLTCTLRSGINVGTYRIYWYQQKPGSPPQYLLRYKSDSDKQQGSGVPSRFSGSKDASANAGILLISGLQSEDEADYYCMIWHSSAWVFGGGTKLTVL
VH: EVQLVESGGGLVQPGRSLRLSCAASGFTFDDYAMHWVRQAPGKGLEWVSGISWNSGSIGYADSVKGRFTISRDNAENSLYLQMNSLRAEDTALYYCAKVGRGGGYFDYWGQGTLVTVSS

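The starting antibody came from a phage panning campaign against this peptide. In library AAYL51, one, two or three CDR residues were substituted; doubles and triples were drawn at random. The assay is AlphaSeq: two haploid yeast populations carry antibody and antigen on their surface. After mating in shaken culture at 30 °C for 16 h, diploids were selected and their barcode pairs sequenced. A regression on co-assayed BCL2-family reference pairs converts the normalised counts of each replicate to an apparent Kd. The assay was run in three technical replicates.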

Each variant is given by its three heavy chain CDRs, as the data file delimits them; those of the parent are GFTFDDYAMH, GISWNSGSIGYADSVK, VGRGGGYFDY. Values are log10 of the apparent Kd in nM; lower means stronger binding. Where no diploid with the target was found in that replicate, the entry reads "n.d.": below detection, most likely a poor binder, though not proof of it.

CDR-H1,CDR-H2,CDR-H3,log10 Kd (nM) by replicate,signal with controls
GCTFDDYAMH,GISWNSGSIGYADASK,VGRGGGYFDY,n.d. n.d. n.d.,0/9
GFTFDVYAMH,GISWNSGSIGYCDSVK,VGRPGGYFDY,4.18 5.54 n.d.,3/9 (4.80)
GFTFDDYAMH,GISWNSGSIYYADSVK,VGRGQGYFDY,n.d. n.d. n.d.,0/9
GFTFDMYAMH,GISWNSGSIGYADLDK,VGRGGGYFDY,4.63 4.93 n.d.,2/9 (5.19)
GFTFDDKAMH,GISWNSGSIGYADSVK,VGRGHGYFTY,5.28 5.17 n.d.,5/9 (4.26)
GFTFDDYAMH,GISWNKGSIGYADSVK,VGRGRGYFDS,4.27 5.29 n.d.,6/9 (4.10)
GFVFDDYAMH,GISWNMGSIGYADSVK,VGRGGGYFDY,2.52 2.82 2.62,0/9
GPTFDDYAMH,GISWNSGSISYADSVK,VGRGKGYFDY,4.37 5.91 5.49,2/9 (4.73)
RFTFDHYAMH,GISWNSGSIGYADSVK,CGRGGGYFDY,4.66 n.d. n.d.,1/9 (4.51)
GDSFDDYAMH,GISWNSGSIGYADSVK,VGRGGGSFDY,1.21 1.19 0.37,5/9 (5.11)
GFTFDDYNMH,GISWPSGSIGYADSVK,VGRGGGYFDL,n.d. 5.52 n.d.,1/9 (5.01)
GFTFDDYAMH,GISWNSGSIHYADSVK,VGRDGGYFDY,4.45 4.44 4.71,7/9 (4.72)
GFSFDDYAMH,GKSWNSGSIGYADSVK,VPRGGGYFDY,6.06 5.96 4.95,2/9 (4.28)
GFTFDDYAMH,GIGWNSGSIGYADSVD,VMRGGGYFDY,n.d. n.d. n.d.,0/9
GFTFLDYAAH,GISWNSGSIGYADSVW,VGRGGGYFDY,5.20 n.d. n.d.,3/9 (5.55)
GFNFDDYAMH,GISWNSGSIGYADSRK,VGIGGGYFDY,n.d. n.d. n.d.,0/9
GFTFDQYAMH,GYSWNSGSIGYADSVK,VGRGGGYFDY,n.d. 4.99 n.d.,2/9 (3.55)
GFGFDDYAMH,GISWNSGSIGYGDSVK,VERGGGYFDY,4.41 3.74 3.58,0/9
GFTFDDYAMH,GISWNIGSIGYADSVK,VGRGGGSFEY,4.13 n.d. 4.83,0/9
GFTHDDYAMH,EISWNSGSIGYADSVK,VGRGGGYPDY,n.d. n.d. n.d.,6/9 (4.92)
GFKFDDYAMH,GISWNSGSIGYADSVK,VGRGGGYFNY,3.05 2.84 3.08,2/9 (4.56)
GFTTDDYAMH,GISWNSGSIGYPDSVK,VGRGGGGFDY,5.42 5.54 4.39,1/9 (4.57)
GFTFDDYAAH,GISWNSGSINYIDSVK,VGRGGGYFDY,n.d. 3.88 n.d.,4/9 (4.36)
GFTFDDYAMA,GISWNSNSIGMADSVK,VGRGGGYFDY,5.03 4.45 n.d.,4/9 (5.14)
GFTFDDYAMH,GIHWNSGQIGYEDSVK,VGRGGGYFDY,n.d. n.d. n.d.,0/9
GVTFDWYAMH,GISWSSGSIGYADSVK,VGRGGGYFDY,6.13 n.d. n.d.,4/9 (4.91)
GFTFDDYSMH,GISWNSGSIGYADDVK,VGRGGGYFDY,1.56 1.50 1.02,5/9 (5.13)
GFTFDDYQMH,GIPWPSGSIGYADSVK,VGRGGGYFDY,n.d. n.d. n.d.,2/9 (3.75)
GFTFDDYAMH,GNSWNSGSIGYADSVK,VGQGGGLFDY,n.d. n.d. n.d.,2/9 (4.65)
GMTFDDYPMH,GISWNSGSIGYADSEK,VGRGGGYFDY,5.60 5.07 n.d.,1/9 (3.35)
GFKFDDYAMP,GISWNSGSIGYADSVK,VGRGGGKFDY,4.76 3.82 n.d.,4/9 (4.52)
GFTFDCYAMH,GISWNSGNIGYADSVK,VGRGGWYFDY,1.90 1.82 1.40,1/9 (4.66)
GFTFDDYAMH,RISWNSGQIGYADSVK,VGRGGSYFDY,3.19 n.d. n.d.,1/9 (4.04)
GFTFDDYAMH,GCSWNSGSIHYADSVK,VGFGGGYFDY,n.d. 4.29 3.66,3/9 (4.83)
GFTFDDYAFH,GISWNSGSIGYDDSVK,VGRGAGYFDY,n.d. n.d. n.d.,0/9
GPTFDDYAMH,GISWNSGSIGTADSVK,WGRGGGYFDY,4.97 5.09 4.18,1/9 (4.66)
GFTFDDYAMH,GISWYSGSIGYADSVK,VGRGGGYFIY,n.d. n.d. n.d.,0/9

Nonspecific signal, from three strains lacking the peptide, appeared in 21% of pairings of library AAYL51, centred on 4.54 (5% of these signals below 3.26); values are not corrected for it. For each scFv, signals with the empty controls are counted beside the result, with their mean in brackets.

Reference: Engelhart et al. 2022, doi:10.1038/s41597-022-01779-4. File: FLAb, binding data.